# Yeast mating assay B: variants of the scFv Ab-14

The target is the same throughout: PDVDLGDISGINAS, from the HR2 region of SARS-CoV-2 spike.

The variants keep the light chain, the linker and the frameworks of Ab-14 (scFv order VH, a (GGGGS)3 linker, VL).
VH: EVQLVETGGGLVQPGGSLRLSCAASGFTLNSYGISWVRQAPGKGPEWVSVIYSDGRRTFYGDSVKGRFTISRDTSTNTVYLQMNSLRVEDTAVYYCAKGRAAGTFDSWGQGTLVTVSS
VL: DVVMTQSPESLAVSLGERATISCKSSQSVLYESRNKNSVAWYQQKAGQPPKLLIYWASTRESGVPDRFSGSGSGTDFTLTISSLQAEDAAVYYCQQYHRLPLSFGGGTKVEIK

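This is the validation round: designs drawn from the data on random variants, tested in the same kind of assay. Their group label is 14H_GPLM_Gen (GPLM: also part of the Gaussian process libraries; Gen: genetic algorithm; a sequence that several methods proposed may carry one label only). The assay is AlphaSeq: two haploid yeast populations carry antibody and antigen on their surface. Mating (16 h, 30 °C) was followed by selection of diploids and sequencing of their barcodes. The ratio of observed to expected reads was calibrated, replicate by replicate, on BCL2-family standards whose Kd was known from biolayer interferometry. There are six technical replicates.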

Positions count from residue 1 of the parent VH; T28S puts S in place of T. Scale: log10 of Kd in nM, estimated from mating counts; low values are strong binders. A pair that was not seen in that replicate is written "n.d."; this usually means weak binding, but a binder can also be missed. Nonspecific signal, from three strains lacking the peptide, appeared in 1% of pairings of all heavy chain designs, centred on 2.08 (5% of these signals below 0.84); values are not corrected for it. Also given: how often the same scFv was detected with the empty control strains, with their mean in brackets. A sequence measured in both rounds can read differently, since the two assays cover different ranges. In the paper, a design with two or fewer of six values counts as a poor binder. Of ten entries with the parent sequence, four were seen in most replicates (averages 0.34 to 2.37), three in one and three in none, so single entries are noisy.

changes	log10 Kd, replicates	signal with controls
T28S/G61S/R100D	-0.30 -0.24 -0.33 -0.11 -0.25 0.02	0 of 18
T28M/G61A/R100Q/A101T	0.40 0.31 0.22 1.13 0.40 1.03	1 of 18 (1.92)
T28Q/G61A/R100Q	0.62 0.57 0.13 -0.16 0.50 1.01	0 of 18
T28S/G61A/S63M/R100Q	0.60 0.91 1.15 0.68 1.11 0.69	0 of 18
G26K/T28S/G61A/R100K	1.04 1.93 2.64 0.42 1.05 1.51	0 of 18
T28S/G61Q/R100S	n.d. n.d. n.d. n.d. n.d. n.d.	0 of 18
G26Y/T28E/G61A/A101T	0.77 n.d. n.d. n.d. n.d. n.d.	0 of 18
G61A/R100Q/S107K	1.32 0.51 0.89 1.26 0.76 1.17	2 of 18 (2.37)
S53A/R100T	-0.16 0.06 -0.14 -0.72 0.21 -0.39	0 of 18
T28S/S31M/G61I/A101T	1.59 0.56 n.d. n.d. 2.61 1.43	0 of 18
T28E/N30E/G61A/A101T	0.01 0.45 0.27 0.17 0.01 1.00	0 of 18
T28V/S53A/R100Q	-0.37 0.41 0.74 0.92 n.d. 0.54	0 of 18
G61I/R100Q/A101I	n.d. n.d. n.d. n.d. n.d. n.d.	0 of 18
T28S/S31E/S63R/A101T	0.97 1.06 0.92 1.17 1.15 0.75	0 of 18
N30E/G61A/D106T	n.d. n.d. n.d. n.d. n.d. n.d.	0 of 18
T28S/A101T/D106W	n.d. n.d. n.d. n.d. n.d. n.d.	0 of 18
G26Y/T28S/G61A/R100N	n.d. n.d. -0.39 n.d. n.d. -0.25	0 of 18
T28W/S53A/R100Q	n.d. 1.48 n.d. 1.07 0.56 0.25	0 of 18
S31E/A101H/S107T	1.59 0.59 0.71 1.28 0.60 1.21	0 of 18
T28D/G61F/A101T	n.d. n.d. n.d. n.d. n.d. n.d.	0 of 18
T28E/S31N/A101T	0.54 0.37 -0.26 0.00 -0.64 0.12	0 of 18
G26K/T28S/G61A/R100W/A101T	0.64 1.18 0.93 0.35 0.28 0.56	0 of 18
R56L/A101V	1.69 2.14 0.95 1.44 1.36 2.34	0 of 18
T28D/S63Q/R100E	0.55 0.91 0.40 0.59 0.76 0.38	1 of 18 (1.38)
S31D/G61S/R100K	0.91 0.31 -0.13 0.25 0.06 0.69	0 of 18
T28S/G61H/R100Q/A101T	0.72 1.08 0.50 0.68 0.47 0.52	0 of 18
G61S/R100K/A101S	1.67 1.29 0.95 1.07 0.88 1.62	0 of 18
T28S/G61T/A101V	0.97 -0.26 0.09 0.27 0.13 0.02	0 of 18
T28S/G61A/S107T	0.72 0.29 0.73 0.30 0.09 0.27	0 of 18
T28S/G61A/R100K/A101E	-0.24 -0.32 -0.70 0.03 -0.80 -0.05	1 of 18 (1.72)
T28S/R100Q/A101T/S107D	0.69 0.44 0.83 0.64 0.63 0.98	0 of 18
T28S/G61S/A101V	0.00 0.15 -0.06 0.01 0.03 0.28	0 of 18
T28S/F59A/G61A	0.12 -0.01 -0.39 -0.09 -0.53 -0.15	0 of 18
S53A/S107I	0.19 -0.08 -0.21 0.39 -0.05 -0.06	0 of 18
T28S/S63N/A101T	n.d. n.d. n.d. n.d. 2.01 1.01	0 of 18
T28S/A101V/S107Q	1.17 0.36 1.12 0.60 0.76 1.64	0 of 18
T28S/G61A/A101T/S107W	0.79 1.40 1.01 0.56 1.20 0.83	0 of 18
T28K/A101Q	0.36 0.76 0.53 0.44 1.39 0.46	0 of 18
T28S/S31E/G61V/R100K	0.12 -0.14 -0.57 -0.33 -0.50 -0.14	1 of 18 (2.73)
S31E/A101T/D106F	n.d. n.d. n.d. n.d. n.d. n.d.	0 of 18
T28S/S31D/G61D/A101T	-0.03 -0.12 -0.40 -0.74 -0.76 -0.62	1 of 18 (1.67)
T28D/S63G/A101T	0.48 0.20 0.33 -0.87 -0.33 0.36	0 of 18
T28S/G61A/R100Q/S107T	0.34 -0.19 -0.27 -0.45 -0.37 -0.10	0 of 18
G26K/T28K/G61A/A101T	-0.44 0.88 0.51 0.42 0.05 -0.29	0 of 18

Picked from the list: the 2 lowest averages where every replicate gave a value.

| changes | log10 Kd, replicates | signal with controls |
|---|---|---|
| T28S/S31D/G61D/A101T | -0.03 -0.12 -0.40 -0.74 -0.76 -0.62 | 1 of 18 (1.67) |
| T28S/G61A/R100K/A101E | -0.24 -0.32 -0.70 0.03 -0.80 -0.05 | 1 of 18 (1.72) |

Values reported by Li et al. 2023, doi:10.1038/s41467-023-39022-2 (FLAb copy).